Reference: PubChem BioAssay AID624169 (The Scripps Research Institute Molecular Screening Center, 2012)
This is a selection; strong and weak results do not stand in their true shares. Active and inactive are the calls of the source.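 The calls were made as follows: active = activation above a run cutoff, the mean activation of all tested compounds plus 3 SD (cut at about 14% in these data); inactive = the rest.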

Chains of the proteins cited; added tags and fusions are not shown.
UniProt P35363, whole entry: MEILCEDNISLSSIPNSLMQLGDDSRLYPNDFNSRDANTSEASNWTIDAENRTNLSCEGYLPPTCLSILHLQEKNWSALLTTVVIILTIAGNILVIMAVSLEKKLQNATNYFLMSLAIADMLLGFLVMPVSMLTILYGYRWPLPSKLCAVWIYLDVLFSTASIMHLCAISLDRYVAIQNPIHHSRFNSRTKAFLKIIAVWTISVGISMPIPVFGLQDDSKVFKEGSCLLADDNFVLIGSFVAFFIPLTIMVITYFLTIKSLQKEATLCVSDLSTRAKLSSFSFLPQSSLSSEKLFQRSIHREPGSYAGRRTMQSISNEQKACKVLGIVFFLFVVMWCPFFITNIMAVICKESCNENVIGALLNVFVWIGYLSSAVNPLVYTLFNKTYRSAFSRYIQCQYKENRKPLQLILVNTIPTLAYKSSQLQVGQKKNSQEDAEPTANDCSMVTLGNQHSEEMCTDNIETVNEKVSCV

Molecular target: 5-hydroxytryptamine receptor 2A (Mus musculus) (UniProt P35363)
Assay: mouse Htr2a agonists via beta-arrestin recruitment, primary screen, cell-based, luminescence (AID 624169);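 also: 0% = plate median of compound wells and 100% = 30 µM serotonin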
Details: CHO-K1 mHTR2A beta-arrestin complementation, at 7.6 µM, stronger effect = higher value, percent of 30 µM serotonin response

SMILES	activation
CCC(=O)N(c1ccccc1)C1(COC)CCN(CCn2nnn(CC)c2=O)CC1	inactive: -2.56%
CCC(=O)N(c1ccccc1)C1(COC)CCN(CCc2cccs2)CC1	inactive: -1.17%
